Values quoted from earlier work as cited in patent publication US4956171A, “Transdermal drug delivery using a dual permeation enhancer and method of performing the same” (Paco Pharmaceutical Services, Inc., priority 1989, dated 1990).

Legend:
[1] = relative to morphine; background statement; cited from earlier work
[2] = on over dosage; cited from earlier work

CN1CC[C@]23c4c5ccc(O)c4O[C@H]2C(=O)CC[C@H]3[C@H]1C5 [hydromorphone]
analgesic activity, times more potent than morphine [1]: about 7 times
side effects [2]: severe side effects, particularly respiratory depression
